Tested on: HSV-1
Assay: In vitro anti-viral assay, HSV-1/luciferase replication in Hep-2 cells with IFN-α
Type: cell-based, Herpes Simplex Virus-1
Settings: MOI 5, 48 h, even at higher doses (FIG. 7A, 7B)
Method: Hep-2 cells were seeded at 2×10^4 cells/well in 96 well plates. Cells were infected with HVS1 at an Multiplicity Of Infection (MOI) of 5 for 1 h at 37° C. 24 hours post-seeding. Virus was aspirated, cells were washed, and 200 μl of medium with or without IFN-α or compound were added as indicated. After 48 h, cells were washed, lysed and luciferase activity were measured according to the manufacturer's instructions. […] Each bar represents the mean+/−SEM of triplicates from one experiment.
Herpes Simplex Virus-1 (HSV-1) represents one of the major recurrent virus infections observed in SLE patients^37. Type-I and Type-II IFN signals are known to block HSV-1 dissemination in mice^38, and as a consequence, a therapeutic approach that neutralizes their combined activity may constitute an important safety concern. Therefore, the impact of Apicidin 1a, IKK2 inhibitor IV, and JAK inhibitors on HSV-1 replication regulated by IFN-α in Hep-2 cells was examined in vitro. HSV-1/luciferase was used to infect Hep-2 cells, and viral replication was monitored by luciferase expression.
Hep-2 cells were propagated in MEM (Invitrogen) with 10% fetal bovine serum. HSV-1 recombination virus with both firefly and Renilla luciferase genes in a divergent orientation from a single multiple cloning site were a gift from Dr. Leib's lab. […]

**Q.** How did the “Effect on IFN-α dependent anti-viral activity (HSV-1 replication)” value turn out when `CC(C)(C)c1nc2c3ccc(F)cc3c3c(=O)[nH]ccc3c2[nH]1` [Compound 7, JAK Inhibitor I] was run?
**A.** retained the majority of IFN-α dependent anti-viral activity

— patent US20100093611A1, “COMPOUNDS AND METHODS FOR TREATING OR PREVENTING AUTOIMMUNE DISEASES” (priority 2007, published 2010)
